# IntAct's records for PubMed 18716626
# B1: Shugoshin 1 (Homo sapiens), Q5FBB7-6 (parent)
# chain: MAKERCLKKSFQDSLEDIKKRMKEKRNKNLAEIGKRRSFIAAPCQIITNTSTLLKNYQDNNKMLVLALENEKSKVKEAQDIILQLRKECYYLTCQLYALKGKLTSQQTVEPAQNQEICSSGMDPNSDDSSRNLFVKDLPQIPLEETELPGQGESFQIEDQIPTIPQDTLGVDFDSGEAKSTDNVLPRTVSVRSSLKKHCNSICQFDSLDDFETSHLAGKSFEFERVGFLDPLVNMHIPENVQHNACQWSKDQVNLSPKLIQPGTFTKTKEDILESKSEQTKSKQRDTQERKREEKRKANRRKSKRMSKYKENKSENKKTVPQKKMHKSVSSNDAYNFNLEEGVHLTPFRQKVSNDSNREENNESEVSLCESSGSGDDSDDLYLPTCKYIQNPTSNSDRPVTRPLAKRALKYTDEKETEGSKPTKTPTTTPPETQQSPHLSLKDITNVSLYPVVKIRRLSLSPKKNKASPAVALPKRRCTASVNYKEPTLASKLRRGDPFTDLCFLNSPIFKQKKDLRRSKKSMKQIQ
# Variants of: B1
# Conditions: with cbx5_human CBX5
row,Variant,effect of a mutation on the interaction
1,V453E,disrupting interaction strength
